A word on the inhibition: it is how much of the control response was suppressed.

By UniProt entry, the sequences of proteins in these tests, tags left out. Where a name states a change or a piece, a line headed by the entry shows the natural chain unless it says otherwise.
UniProt Q9HAT2: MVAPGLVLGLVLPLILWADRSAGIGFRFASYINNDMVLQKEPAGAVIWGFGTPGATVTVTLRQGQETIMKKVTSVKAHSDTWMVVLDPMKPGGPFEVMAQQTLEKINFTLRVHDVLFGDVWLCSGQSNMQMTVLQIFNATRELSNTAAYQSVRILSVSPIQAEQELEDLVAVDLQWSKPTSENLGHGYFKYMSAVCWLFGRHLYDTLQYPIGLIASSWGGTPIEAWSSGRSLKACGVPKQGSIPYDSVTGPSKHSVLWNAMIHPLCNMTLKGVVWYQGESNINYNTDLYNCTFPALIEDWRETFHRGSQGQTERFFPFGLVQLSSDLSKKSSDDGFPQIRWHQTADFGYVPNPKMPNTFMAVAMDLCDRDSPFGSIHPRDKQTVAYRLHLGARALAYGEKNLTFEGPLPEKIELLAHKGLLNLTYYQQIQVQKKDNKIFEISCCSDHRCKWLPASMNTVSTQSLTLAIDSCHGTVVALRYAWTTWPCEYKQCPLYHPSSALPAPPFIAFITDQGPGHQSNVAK

The entries are a selection whose mix differs from that of the whole data set. The source made the active and inactive calls.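 Rule for the calls: active = mean inhibition of the replicates above the hit cutoff set in the primary screen (cut at about 17% in these data); inactive = the rest.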

For this test, the target named is Sialate O-acetylesterase (Homo sapiens) (UniProt Q9HAT2). The experiment in a line: sialate O-acetylesterase blockers re-tested – biochemical, fluorescence polarization, FP-Rh probe, triplicate, confirmation (AID 1117263).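 Note: 0% = SIAE with DMSO and probe and 100% = probe without SIAE; inhibitors lower polarization as more probe stays unbound to SIAE.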 The following applies: SIAE FP-Rh activity-based probe, at 9.66 µM, stronger effect = higher value.
As for `Nc1cccc2ccc([As](=O)(O)O)cc12`, the inhibition is inactive: 0.87%. For the compound `C[N+]1=C2C=CC=CC=C2SC12C([N+](=O)[O-])=CC([N+](=O)[O-])=C[C-]2[N+](=O)[O-]` (stereo not given), the inhibition is inactive: 10.6%.

Take `O=[N+]([O-])c1cc([N+](=O)[O-])c(CCNc2ccccc2)c([N+](=O)[O-])c1`: the inhibition is active: 27.2%. As for `Nc1cccc2c([As](=O)(O)O)cccc12`, the inhibition is inactive: 10.6%. Take `Cc1ccc(NCCc2c([N+](=O)[O-])cc([N+](=O)[O-])cc2[N+](=O)[O-])cc1`: the inhibition is inactive: 15.2%.

These data come from PubChem BioAssay AID1117263 (The Scripps Research Institute Molecular Screening Center, 2014).
